# Test results published in patent US20230128137A1, “BENZO FIVE-MEMBERED CYCLIC COMPOUND” (MEDSHINE DISCOVERY INC., priority 2020, published 2023).
# Experiments:
# [1] = human liver microsomes
# [2] = CD-1 mouse liver microsomes
smiles,measurement,setting,value
O=C(O)Cc1ccccc1Nc1c(Cl)cccc1Cl [Diclofenac],T1/2,[1],4.5 min
same,CLint(liver),[2],86.4 mL/min/kg
